{
  "source": "patent US6737237B1",
  "about": "“Antimicrobial agents, diagnostic reagents, and vaccines based on unique Apicomplexan parasite components” (Apicomplexan Therapeutics, LLC, priority 1999, dated 2004)",
  "system": "T. gondii tachyzoites (RH strain)",
  "type": "cell-based, Toxoplasma gondii",
  "protocol": "The improvements are based on microscopic visual imspection of infected and inhibitor treated cultures, and on quantitation of nucleic acid synthesis of the parasite by measure intake of ^3H uracil onto the parasite's nucleic acid. Uracil is not utilized by mammalian cells. […] Only the RH strain tachyzoites, cultured for up to 72 hours, had been used in previously reported assays. The use of Me49, Ptg, and R5 mutant are unique aspects of the methods used in these assays in this invention.\nIn these assays toxicity of a candidate inhibitor was assessed by its ability to prevent growth of human foreskin fibroblasts (HFF) after 4 days and after 8 days as measured by tritiated thymidine uptake and microscopic evaluation. Confluent monolayers of HFF were infected with tachyzoites and bradyzoites. Inhibitor was added one hour later. Non-toxic doses were used in parasite growth inhibition assays. Parasite growth was measured by ability to incorporate tritiated uracil during the last 18 hours of culture.\nFirst the toxicity of gabaculine was assessed by its ability to prevent growth of human foreskin fibroblasts (HFF) as measured by ^3H-thymidine uptake and microscopic evaluation. […] Parasite growth was measured by the ability to incorporate ^3H-uracil during the last 18 hours of culture. In addition, parasite growth was evaluated microscopically in Giemsa stained slides. […]",
  "data": [
    {"smiles": "O=C(NO)c1ccccc1O", "note": "[SHAM, Salicylhydroxamic acid]", "values": [
      {"measurement": "activity against T. gondii (tachyzoites)", "result": "effective"}
    ]}
  ]
}
